For one compound, IC50 results are on record in ChEMBL document CHEMBL5532725, “SARS-CoV-2 Main Protease Inhibitors That Leverage Unique Interactions with the Solvent Exposed S3 Site of the Enzyme” (ACS Med Chem Lett, 2024).

For the experiment, the target named is Replicase polyprotein 1ab (Severe acute respiratory syndrome coronavirus 2, UniProt P0DTD1). As to the kind of experiment: Inhibition of SARS-CoV-2 MPro preincubated for 30 mins followed by substrate addition by fluorescence based assay.

As to `CC1(C)[C@@H]2[C@@H](C(=O)N[C@H](C#N)C[C@@H]3CCNC3=O)N(C(=O)[C@@H](NC(=O)C(F)(F)F)c3ccc(Cl)c(Cl)c3)C[C@@H]21`, the IC50 (as a rule, the concentration at which inhibition is half-maximal) was 0.025 µM.
